What was measured:
[1] = molecular target: M2 muscarinic receptor (Rattus norvegicus, UniProt P10980); assay: Radioligand binding assay, [3H]-N-methyl scopolamine, rat heart membranes; settings: [3H]-NMS, Ki by Cheng & Prusoff
[2] = molecular target: M3 muscarinic receptor (Rattus norvegicus, UniProt P08483); settings: rat submandibular gland membranes, [3H]-NMS, Ki by Cheng & Prusoff

Sequences of proteins named here, by UniProt entry; tags and fusion partners are left off.
UniProt P10980, whole entry, looked up: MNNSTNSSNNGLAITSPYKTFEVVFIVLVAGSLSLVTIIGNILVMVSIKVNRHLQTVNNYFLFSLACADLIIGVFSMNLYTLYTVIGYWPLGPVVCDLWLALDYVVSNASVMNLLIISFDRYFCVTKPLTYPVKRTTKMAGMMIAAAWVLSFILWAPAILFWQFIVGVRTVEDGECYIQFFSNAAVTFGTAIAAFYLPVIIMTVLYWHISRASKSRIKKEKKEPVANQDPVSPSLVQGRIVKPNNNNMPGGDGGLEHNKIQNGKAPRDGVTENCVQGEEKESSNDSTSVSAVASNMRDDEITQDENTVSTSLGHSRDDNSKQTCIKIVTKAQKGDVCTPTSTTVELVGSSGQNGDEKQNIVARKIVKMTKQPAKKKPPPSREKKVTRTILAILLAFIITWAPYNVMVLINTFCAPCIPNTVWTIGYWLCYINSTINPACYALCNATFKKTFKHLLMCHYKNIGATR
UniProt P08483, whole entry, looked up: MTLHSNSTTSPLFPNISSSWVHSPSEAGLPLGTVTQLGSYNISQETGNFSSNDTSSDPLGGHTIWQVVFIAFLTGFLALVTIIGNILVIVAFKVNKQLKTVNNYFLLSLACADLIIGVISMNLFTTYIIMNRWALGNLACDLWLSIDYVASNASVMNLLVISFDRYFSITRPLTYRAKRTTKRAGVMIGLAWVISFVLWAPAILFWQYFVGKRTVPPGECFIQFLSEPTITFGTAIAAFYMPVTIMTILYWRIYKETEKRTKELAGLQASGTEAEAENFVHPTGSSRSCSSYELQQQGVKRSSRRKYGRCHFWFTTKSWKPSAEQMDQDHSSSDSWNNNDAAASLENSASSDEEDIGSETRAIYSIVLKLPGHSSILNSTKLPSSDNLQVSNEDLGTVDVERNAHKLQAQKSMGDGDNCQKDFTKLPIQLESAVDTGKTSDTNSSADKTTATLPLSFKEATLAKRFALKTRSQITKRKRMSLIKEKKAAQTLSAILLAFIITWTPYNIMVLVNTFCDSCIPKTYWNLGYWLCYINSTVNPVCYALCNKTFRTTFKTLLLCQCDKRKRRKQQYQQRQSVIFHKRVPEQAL

SMILES | Receptor Binding Assay M2 PKi [1] | Receptor Binding Assay M3 pki [2]
O=C(N[C@H]1CCN(CCc2ccc3c(c2)OCO3)C1)C(O)(c1ccccc1)C1CCCC1 (stereo partly shown) | 5.75 | 6.97
O=C(N[C@H]1CCN(Cc2ccccc2)C1)C(O)(c1ccccc1)C1CCCC1 (stereo partly shown) | <5 | <5

— patent US7465751B2 (priority 2002, dated 2008)
